Biological target: rabbit muscle actin polymerized to filamentous (F-) actin (rabbit, UniProt P68135 3-377)
Assay: co-sedimentation of 1-33 uM RNase B1 with 30 uM F-actin, RNase activity of the supernatant, Scatchard analysis
Description: The interaction between RNase B1 and actin was quantified as modified from Simm (Simm, F. C. et al., 1987. Eur. J. Biochem. 166:49-54). Rabbit muscle globu(G-) actin (Sigma Co.) was polymerized to filamentous (F—) actin in Buffer F (10 mM Tris pH 8, 0.1 mM ATP, 0.2 mM CaCl₂, 0.1 M KCL and 2 mM MgCl₂) for 30 minutes at room temperature. Samples of 50 μl containing each 30 μM F-actin were incubated overnight at 4° C. with 1-33 μM RNase B1. As a control, each concentration of RNase was incubated with buffer F alone. The samples were centrifuged at 15,000 g for 40 minutes and RNase activity of the supernatant was determined (Roiz, L., Goren, R. and Shoseyov, 0.1995, Physiol. Plant. 94:585-590.).
The interaction between RNase B1 and actin was quantified using Scatchard analysis.

B1: Aspergillus niger B1 extracellular RNase (RNase B1) (enzyme)
chain: TIDTCSSDSPLSCQTDNEASCCFNSPGGSLLQTQFWDYDPSDGPSGSWTIHGLWPDNCDGTYQEYCDESREYSNITSILEAQNRTELLSYMKEYWPDYEGADEDESFWEHEWNKHGTCINTIEPSCYTDYYAQEEVGDFFQQVVDLFKTLDSYTALSDAGITPSEDATYKLSDIEDALAAIHDGYPPYVGCEDGALSQLYYYFNVKGSAIGGTYVASERLEDSNCKDSGIKYPPKYSSSKKIYGSSL
modifications: glycoprotein (32- and 40-kDa glycoforms sharing a 29-kDa protein core)
notes: Native protein purified from A. niger B1 culture filtrate (EMD-TMAE and MONO-Q columns); also called A. niger T2 RNase; B1 RNase
  RNase:actin molar ratio: 0.45 mol RNase per mol actin

— patent publication US20080131419A1 (YISSUM RESEARCH DEVELOPMENT COMPANY OF THE HEBREW …, published 2008)
